Assays:
Expi293 cells [1] = test: CellTiter-Glo cell health (ATP levels) during cell association assay; type: cell-based; settings: reflective of cell health, luminescence Tfinal (22 hours) / Tinitial
Expi293 cells [2] = test: Measurement of the Cell Association of Helicons (mass spectrometry quantification in cells after treatment and wash); type: cell-based; settings: percentage of Helicons in cells after treatment and wash, 22 hours, n = 2, mean ± SD
Protocol: All samples were analyzed using mass spectrometry.

Structure (SMILES)	CellTiter-Glo fold change ± SD (Expi293 cells [1])	Helicon in cells ± SD (%) (Expi293 cells [2])
CC[C@H](C)[C@H](NC(C)=O)C(=O)N[C@@H](CC(C)C)C(=O)N[C@H](C(=O)N[C@]1(C)CCCCCCC=CCCC[C@@](C)(C(=O)N[C@@H](CCC(N)=O)C(=O)N[C@@H](Cc2ccc(O)cc2)C(=O)N[C@@H](CCC(N)=O)C(N)=O)NC(=O)[C@H]([C@@H](C)O)NC(=O)[C@H](Cc2ccccc2)NC(=O)[C@H](C)NC(=O)[C@H](C)NC(=O)[C@H](CCC(=O)O)NC(=O)[C@H](Cc2ccc(O)cc2)NC1=O)[C@@H](C)O (single isomer, unassigned) [FP08029, Ac-Ile-Leu-Thr-R8-Tyr-Glu-Ala-Ala-Phe-Thr-S5-Gln-Tyr-Gln-NH2]	1.1 ± 0.03	0.2 ± 0.0%
CC[C@H](C)[C@H](NC(C)=O)C(=O)N[C@@H](CC(C)C)C(=O)N[C@H](C(=O)N[C@]1(C)CCCCCCC=CCCC[C@@](C)(C(=O)N[C@@H](CCC(N)=O)C(=O)N[C@@H](Cc2ccc(O)cc2)C(=O)N[C@@H](CCC(N)=O)C(N)=O)NC(=O)[C@H]([C@@H](C)O)NC(=O)[C@H](Cc2ccccc2)NC(=O)[C@H](C)NC(=O)[C@H](C)NC(=O)[C@H](CCC(=O)O)NC(=O)[C@H](Cc2ccc(O)cc2)NC1=O)[C@@H](C)O (single isomer, unassigned) [FP08030, Ac-Ile-Leu-Thr-R8-Tyr-Glu-Ala-Ala-Phe-Thr-S5-Gln-Tyr-Gln-NH2]	1.2 ± .02	0.3 ± 0.0%
